# Literature values, collected in patent US5039528A, “EAA antagonists as anti-emetic drugs” (priority 1989, dated 1991).
# Test system: neurons
# Conditions: Ser. No. 424,548; cited from earlier work
compound,measurement,value
CCN(CC)CCOC(=O)C(O)(c1ccccc1)c1ccccc1,reduction of the neurotoxicity of NMDA antagonists that penetrate the BBB,effective in reducing the neurotoxicity
